Measured values: paper PMC5986199

Biological target: wildtype α/β-NAC heterodimer (nascent polypeptide–associated complex) from Caenorhabditis elegans (C. elegans) (UniProt Q18885)
Test: cross-linking; BS3 (d0/d4) at 20- or 50-fold molar excess, 20 uM NAC alone or + 20 uM substrate, 10 mM sodium phosphate pH 7.0, room temperature 1 h; SDS-PAGE, in-gel tryptic digest, LC-MS/MS

- stoichiometry N: 1
Substance: α-synuclein (from UniProt P37840 1-140) (natural protein)
